Only a part is listed here, and it is no random draw. Inconclusive results are not listed. The source made the active and inactive calls. The calls were made as follows, unless noted: active = hit-call score of the fitted dose curve at least 0.9, where 1 is the maximum; inconclusive = response in the unintended direction; inactive = score below 0.9.
Key:
[1] = molecular target: Oxysterols receptor LXR-alpha (Homo sapiens) (UniProt Q13133); assay: ATG_LXRa_TRANS: Attagene TRANS-FACTORIAL HepG2 Assay for human Liver X Receptor alpha (LXRa) (AID 2282980); conditions: HepG2 Attagene TRANS reporter, LXRa transactivation
Protocol: (§1) ATG_TRANS is a cell-based, multiplexed-readout assay that uses HepG2, a human liver cell line, with measurements taken at 24 hours after chemical dosing in a 24-well plate.ATG_LXRa_TRANS is one of 30 assay component(s) measured or calculated from the ATG_TRANS assay. It is designed to make measurements of mRNA induction, a form of inducible reporter, as detected with fluorescence intensity signals by Reverse transcription polymerase chain reaction (RT-PCR) and Capillary electrophoresis technology.Data from the assay component ATG_LXRa_TRANS was analyzed into 1 assay endpoint. This assay endpoint, ATG_LXRa_TRANS, was analyzed in the positive analysis fitting direction relative to DMSO as the negative control and baseline of activity. Using a type of inducible reporter, measures of mRNA for gain-of-signal activity can be used to understand the reporter gene at the transcription factor-level as they relate to the gene NR1H3. Furthermore, this assay endpoint can be referred to as a primary readout, because this assay has produced multiple assay endpoints where this one serves a reporter gene function. To generalize the intended target to other relatable targets, this assay endpoint is annotated to the nuclear receptor intended target family, where the subfamily is non-steroidal.
Human liver HepG2 cells are transiently transfected with multiple reporter transcription units (MRTUs) in 6-well plates using FuGene 6 reagent (Roche; 3 ml FuGene/1 mg DNA). The MRTU constructs are regulated by a cis-regulating element (promoter). […] A major difference between the CIS and TRANS system is that in CIS activities of endogenous TFs are measured, whereas the TRANS assay evaluates changes in activities of exogenous, chimeric NR-Gal4 proteins. […] At the end of 24 hour incubation, total RNA was isolated using TriZol reagent (Invitrogen). The isolated RNA is then reverse-transcribed using oligo(dT) primer and Mo-MLV reverse transcriptase (Invitrogen) with DNAse I (Ambion) treatment for 30 min. The one-tenth of the produced cDNA was amplified by PCR using Taq DNA polymerase (Invitrogen) and two reporter sequence-specific primers. The PCR products were fluorescently labeled by primer extension with 6-arboxyfluorescein (6-FAM) 5'-labeled reporter sequence-specific primer (2 min at 95 C, 20 s at 68 C and 10 min at 72 C) and these products were digested with 5U of HpaI (New England Biolabs) for 2h at 37 C. The fragments were purified using Qiaquick PCR columns (Qiagen), analyzed on an ABI 3130xL genetic analyzer (Applied Biosystems) with peak positions identified by using a set of X-rhodamine (ROX)-labeled MapMarker1000 molecular weight standards (BioVentures). […]

Chains of the proteins cited; added tags and fusions are not shown.
UniProt Q13133, whole entry: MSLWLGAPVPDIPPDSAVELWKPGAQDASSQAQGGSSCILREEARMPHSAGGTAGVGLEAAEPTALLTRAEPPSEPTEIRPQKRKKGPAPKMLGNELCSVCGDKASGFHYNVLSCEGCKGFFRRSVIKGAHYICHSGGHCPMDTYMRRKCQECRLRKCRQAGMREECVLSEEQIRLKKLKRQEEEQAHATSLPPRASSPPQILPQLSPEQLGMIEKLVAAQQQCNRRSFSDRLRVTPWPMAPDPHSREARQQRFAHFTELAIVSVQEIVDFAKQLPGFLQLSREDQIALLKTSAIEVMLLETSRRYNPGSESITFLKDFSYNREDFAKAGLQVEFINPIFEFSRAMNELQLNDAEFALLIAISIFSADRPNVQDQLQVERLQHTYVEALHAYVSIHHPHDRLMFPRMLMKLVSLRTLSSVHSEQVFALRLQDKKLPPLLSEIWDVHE
UniProt P55055, whole entry: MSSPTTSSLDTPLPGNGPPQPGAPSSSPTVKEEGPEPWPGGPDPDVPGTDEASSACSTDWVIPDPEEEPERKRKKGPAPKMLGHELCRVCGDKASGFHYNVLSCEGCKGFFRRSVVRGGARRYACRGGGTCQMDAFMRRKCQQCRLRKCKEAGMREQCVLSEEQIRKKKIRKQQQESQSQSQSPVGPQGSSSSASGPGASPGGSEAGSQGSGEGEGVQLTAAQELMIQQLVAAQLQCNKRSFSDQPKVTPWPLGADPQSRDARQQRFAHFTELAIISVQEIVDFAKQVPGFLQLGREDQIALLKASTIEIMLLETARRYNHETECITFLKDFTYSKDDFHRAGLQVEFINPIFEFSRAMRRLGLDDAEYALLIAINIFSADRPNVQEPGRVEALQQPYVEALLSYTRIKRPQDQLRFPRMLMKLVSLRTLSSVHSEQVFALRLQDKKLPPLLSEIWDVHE
UniProt P10242, whole entry: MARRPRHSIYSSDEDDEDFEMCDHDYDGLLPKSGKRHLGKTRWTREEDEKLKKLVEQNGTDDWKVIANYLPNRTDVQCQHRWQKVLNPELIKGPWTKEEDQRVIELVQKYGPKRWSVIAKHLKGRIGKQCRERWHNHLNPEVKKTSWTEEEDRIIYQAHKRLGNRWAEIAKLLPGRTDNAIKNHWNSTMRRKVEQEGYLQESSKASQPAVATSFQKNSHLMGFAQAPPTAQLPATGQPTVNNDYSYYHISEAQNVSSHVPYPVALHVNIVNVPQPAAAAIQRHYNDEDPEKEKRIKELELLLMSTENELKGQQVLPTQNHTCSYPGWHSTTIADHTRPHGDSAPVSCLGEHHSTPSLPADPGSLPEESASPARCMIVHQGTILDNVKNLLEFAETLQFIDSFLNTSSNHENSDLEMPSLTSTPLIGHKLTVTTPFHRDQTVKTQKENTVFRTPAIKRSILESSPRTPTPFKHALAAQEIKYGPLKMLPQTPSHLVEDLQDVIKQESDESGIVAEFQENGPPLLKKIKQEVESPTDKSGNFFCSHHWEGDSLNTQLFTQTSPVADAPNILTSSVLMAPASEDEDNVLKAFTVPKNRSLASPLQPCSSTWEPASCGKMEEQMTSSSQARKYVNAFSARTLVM
UniProt P62508, whole entry: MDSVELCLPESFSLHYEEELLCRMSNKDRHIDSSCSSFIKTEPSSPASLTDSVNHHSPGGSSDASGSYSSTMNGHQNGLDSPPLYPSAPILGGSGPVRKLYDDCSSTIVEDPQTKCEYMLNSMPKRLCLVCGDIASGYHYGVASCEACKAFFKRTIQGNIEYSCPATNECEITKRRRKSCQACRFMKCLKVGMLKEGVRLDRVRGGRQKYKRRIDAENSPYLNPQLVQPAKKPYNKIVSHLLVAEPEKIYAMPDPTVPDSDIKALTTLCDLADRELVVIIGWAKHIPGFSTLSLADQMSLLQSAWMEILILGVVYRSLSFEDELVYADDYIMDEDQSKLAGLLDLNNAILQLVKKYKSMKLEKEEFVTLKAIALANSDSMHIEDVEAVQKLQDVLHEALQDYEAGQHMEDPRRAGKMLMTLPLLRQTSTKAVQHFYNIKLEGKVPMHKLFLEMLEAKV
UniProt P04150, whole entry: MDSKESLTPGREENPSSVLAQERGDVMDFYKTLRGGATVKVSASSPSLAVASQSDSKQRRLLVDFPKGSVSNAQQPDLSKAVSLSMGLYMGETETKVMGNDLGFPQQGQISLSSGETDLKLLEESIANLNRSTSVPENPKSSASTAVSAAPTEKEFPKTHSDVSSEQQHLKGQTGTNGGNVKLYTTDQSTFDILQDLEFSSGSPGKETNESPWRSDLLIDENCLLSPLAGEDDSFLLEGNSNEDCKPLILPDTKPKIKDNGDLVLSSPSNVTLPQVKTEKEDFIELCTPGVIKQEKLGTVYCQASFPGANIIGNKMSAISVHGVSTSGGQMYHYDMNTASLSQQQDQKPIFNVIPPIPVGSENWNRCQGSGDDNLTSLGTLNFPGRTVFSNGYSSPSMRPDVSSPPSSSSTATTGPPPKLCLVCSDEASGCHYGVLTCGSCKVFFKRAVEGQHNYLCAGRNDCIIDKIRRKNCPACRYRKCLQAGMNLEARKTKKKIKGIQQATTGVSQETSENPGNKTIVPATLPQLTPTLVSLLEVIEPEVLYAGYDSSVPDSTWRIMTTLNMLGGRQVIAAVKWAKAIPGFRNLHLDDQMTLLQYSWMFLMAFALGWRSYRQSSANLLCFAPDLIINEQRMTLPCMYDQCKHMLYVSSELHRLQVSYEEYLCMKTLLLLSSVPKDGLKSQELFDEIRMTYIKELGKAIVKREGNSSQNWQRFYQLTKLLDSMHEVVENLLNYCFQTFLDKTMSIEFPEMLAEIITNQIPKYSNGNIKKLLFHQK
UniProt P41235, whole entry: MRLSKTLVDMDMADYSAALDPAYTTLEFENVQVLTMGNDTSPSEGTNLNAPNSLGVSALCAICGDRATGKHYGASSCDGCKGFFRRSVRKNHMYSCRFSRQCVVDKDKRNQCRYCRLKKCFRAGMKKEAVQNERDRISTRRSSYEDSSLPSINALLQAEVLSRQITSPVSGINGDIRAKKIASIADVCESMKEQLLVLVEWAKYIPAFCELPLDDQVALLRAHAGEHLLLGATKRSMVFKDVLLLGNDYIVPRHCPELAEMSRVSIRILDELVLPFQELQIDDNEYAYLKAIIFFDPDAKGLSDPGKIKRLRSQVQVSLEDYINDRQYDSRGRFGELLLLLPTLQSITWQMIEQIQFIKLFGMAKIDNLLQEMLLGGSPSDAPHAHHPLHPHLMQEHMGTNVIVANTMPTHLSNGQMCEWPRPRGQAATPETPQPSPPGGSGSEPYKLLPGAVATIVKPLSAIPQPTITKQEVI
UniProt Q96RI1, whole entry: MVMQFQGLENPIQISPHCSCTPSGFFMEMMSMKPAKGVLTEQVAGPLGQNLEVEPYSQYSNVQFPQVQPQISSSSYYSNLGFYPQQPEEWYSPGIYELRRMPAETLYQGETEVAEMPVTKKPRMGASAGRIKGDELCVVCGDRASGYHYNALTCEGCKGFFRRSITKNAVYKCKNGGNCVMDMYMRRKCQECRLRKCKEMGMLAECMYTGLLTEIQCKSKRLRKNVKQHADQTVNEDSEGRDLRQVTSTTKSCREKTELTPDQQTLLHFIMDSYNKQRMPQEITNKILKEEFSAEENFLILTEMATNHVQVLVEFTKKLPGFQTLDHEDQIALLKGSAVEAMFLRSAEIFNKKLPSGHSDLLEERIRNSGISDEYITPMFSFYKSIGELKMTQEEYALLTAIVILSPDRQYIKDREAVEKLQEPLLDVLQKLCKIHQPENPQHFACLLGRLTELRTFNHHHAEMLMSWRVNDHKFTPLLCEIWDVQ

[2] = molecular target: Oxysterols receptor LXR-beta (Homo sapiens) (UniProt P55055); assay: ATG_LXRb_TRANS: Attagene TRANS-FACTORIAL HepG2 Assay for human Liver X Receptor beta (LXRb) (AID 2282981); conditions: HepG2 Attagene TRANS GAL4-LXRb reporter, mRNA
Summary of the method: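 Liver-derived HepG2 cells transfected with Gal4-responsive reporters were dosed for 24 h. Activation was scored as rise in reporter mRNA, by RT-PCR and capillary electrophoresis, above DMSO baseline.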

[3] = ATG_M_06_TRANS: Attagene TRANS-FACTORIAL HepG2 Assay for M06 Transcription Factor (Internal Marker) (AID 2282983); conditions: HepG2 Attagene TRANS M06 internal marker reporter
Summary of the method: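 Background-control reporter readout: after 24 h chemical exposure of transiently transfected HepG2 (GAL4-UAS reporter units), mRNA quantified by RT-PCR with fluorescent labeling and capillary electrophoresis. Gain-of-signal fitting against DMSO baseline.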

[4] = ATG_M_32_TRANS: Attagene TRANS-FACTORIAL HepG2 Assay for M32 Transcription Factor (Internal Marker) (AID 2282984); conditions: HepG2 Attagene TRANS M32 internal marker reporter;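 also: transcript level of a background control reporter unit measured by RT-PCR and capillary electrophoresis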
Summary of the method: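 Fluorescence-detected mRNA induction, HepG2 liver cells, 24 h after dosing. Multiple GAL4-UAS reporter units introduced by transient transfection; background-control endpoint analysed for gain of signal against DMSO.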

[5] = molecular target: Transcriptional activator Myb (Homo sapiens) (UniProt P10242); assay: ATG_Myb_CIS: Attagene CIS-FACTORIAL HepG2 Assay for human Myeloblastosis (Myb) Proto-Oncogene Transcription Factor (AID 2282986; active = hit-call score of the fitted dose curve at least 0.9, where 1 is the maximum; inactive = score below 0.9); conditions: HepG2 Attagene CIS-FACTORIAL Myb reporter transcription; actives raise or lower the signal
Summary of the method: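 Steps: transfect HepG2 with cis-regulated reporter units; dose with chemical for 24 h; isolate RNA, reverse-transcribe, PCR-amplify and FAM-label reporter sequences; digest with HpaI; resolve by capillary electrophoresis. Activity fitted in both directions relative to DMSO.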

[6] = molecular target: Estrogen-related receptor gamma (Homo sapiens) (UniProt P62508); assay: ATG_ERRg_TRANS: Attagene TRANS-FACTORIAL HepG2 Assay for human Estrogen-Related Receptor gamma (ERRg) (AID 2282977); conditions: HepG2 Attagene TRANS reporter, ERRg transactivation;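 also: hits increase reporter signal over DMSO so potencies reflect activators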
Protocol: as §1, with “plate.ATG_ERRg_TRANS” for “plate.ATG_LXRa_TRANS”, “ATG_ERRg_TRANS” for “ATG_LXRa_TRANS”, “ATG_ERRg_TRANS,” for “ATG_LXRa_TRANS,”, “Using a type of inducible reporter, measures of mRNA for gain-of-signal activity can be used to understand the reporter gene at the transcription factor-level as they relate to the gene NR1H3.” left out, “To generalize the intended target to other relatable targets, this assay endpoint is annotated to the nuclear receptor intended target family, where the subfamily is non-steroidal.” left out
Human liver HepG2 cells are transiently transfected with multiple reporter transcription units (MRTUs) in 6-well plates using FuGene 6 reagent (Roche; 3 ml FuGene/1 mg DNA). […] A major difference between the CIS and TRANS system is that in CIS activities of endogenous TFs are measured, whereas the TRANS assay evaluates changes in activities of exogenous, chimeric NR-Gal4 proteins. […]

[7] = molecular target: Glucocorticoid receptor (Homo sapiens) (UniProt P04150); assay: ATG_GR_TRANS: Attagene TRANS-FACTORIAL HepG2 Assay for human Glucocorticoid Receptor (GR) (AID 2282978); conditions: HepG2 Attagene TRANS GR reporter, mRNA transcription;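 also: activators score as hits since higher reporter transcript over DMSO is fitted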
[8] = molecular target: Hepatocyte nuclear factor 4-alpha (Homo sapiens) (UniProt P41235); assay: ATG_HNF4a_TRANS: Attagene TRANS-FACTORIAL HepG2 Assay for human Hepatocyte Nuclear Factor 4 alpha (HNF4a) (AID 2282982); conditions: HepG2 HNF4a transactivation reporter, mRNA readout
Summary of the method: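 Using HepG2 liver cells transfected with GAL4-UAS reporter units, chemical-induced mRNA increases were assessed after 24 hours. Fluorescent RT-PCR fragments were separated by capillary electrophoresis and compared with DMSO negative controls.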

[9] = ATG_GAL4_TRANS: Attagene TRANS-FACTORIAL HepG2 Assay for GAL4 (Internal Marker) (AID 2282976); conditions: HepG2 Attagene TRANS GAL4 internal marker reporter
Summary of the method: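 In transfected human HepG2 liver cells dosed 24 h, GAL4 reporter mRNA serves as a baseline marker. Detection by RT-PCR with fluorescent capillary electrophoresis, activity fitted upward relative to DMSO.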

[10] = molecular target: Bile acid receptor (Homo sapiens) (UniProt Q96RI1); assay: ATG_FXR_TRANS: Attagene TRANS-FACTORIAL HepG2 Assay for Farnesoid X Receptor (FXR) (AID 2282979); conditions: HepG2 Attagene TRANS FXR-GAL4 reporter transcription;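 also: hits raise reporter mRNA above DMSO so AC50 marks FXR activation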
Summary of the method: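 Reporter transcripts from transfected HepG2 cells were measured 24 h after dosing, using RT-PCR with capillary electrophoresis of 6-FAM-labelled fragments. The read-out reflects activity of exogenous FXR-Gal4 chimera on GAL4-UAS units, with induction relative to DMSO.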

Measured: outcome

CCOP(=O)(Cl)Cl
inactive: [1] | [2] | [3] | [4] | [5]

O=[N+]([O-])c1ccccc1[N+](=O)[O-]
inactive: [6] | [7] | [1] | [8] | [4] | [5]

CC(C)OP(OC(C)C)OC(C)C
not listed: [3] | [6] | [8]
inactive: all other assays above

ClCCOP(OCCCl)OCCCl
inactive: [7] | [2] | [8] | [5]

ClCCNCCCl
inactive: [7] | [1] | [8] | [3] | [4] | [5]

— PubChem BioAssay (EPA / NIEHS)
